The source of these data is publication PMC12134935, “Scientific hypothesis generation by large language models: laboratory validation in breast cancer treatment” (Journal of the Royal Society Interface, 2025).

This test deals with MCF7. Put plainly: Single drug treatments, viability/toxicity. In kind it is cell-based. The settings on record: first round, doses up to 25 µM.

Turning to `OCCN(CCO)c1nc(N2CCCCC2)c2nc(N(CCO)CCO)nc(N3CCCCC3)c2n1` [dipyridamole], the “toxicity towards MCF7” value is on record as “showed toxicity towards MCF7”.
